Only a part is listed here, and it is no random draw. Results filed as inconclusive are left out. Some salts or complexes appear as unconnected parts, following the source record. The source made the active and inactive calls. Rule as the data show it: active = activation above about 80%; inconclusive = between about 30% and that limit; inactive = weaker than that.

The chains behind the UniProt entries cited, without tags or fusion partners.
UniProt Q8NER1, whole entry: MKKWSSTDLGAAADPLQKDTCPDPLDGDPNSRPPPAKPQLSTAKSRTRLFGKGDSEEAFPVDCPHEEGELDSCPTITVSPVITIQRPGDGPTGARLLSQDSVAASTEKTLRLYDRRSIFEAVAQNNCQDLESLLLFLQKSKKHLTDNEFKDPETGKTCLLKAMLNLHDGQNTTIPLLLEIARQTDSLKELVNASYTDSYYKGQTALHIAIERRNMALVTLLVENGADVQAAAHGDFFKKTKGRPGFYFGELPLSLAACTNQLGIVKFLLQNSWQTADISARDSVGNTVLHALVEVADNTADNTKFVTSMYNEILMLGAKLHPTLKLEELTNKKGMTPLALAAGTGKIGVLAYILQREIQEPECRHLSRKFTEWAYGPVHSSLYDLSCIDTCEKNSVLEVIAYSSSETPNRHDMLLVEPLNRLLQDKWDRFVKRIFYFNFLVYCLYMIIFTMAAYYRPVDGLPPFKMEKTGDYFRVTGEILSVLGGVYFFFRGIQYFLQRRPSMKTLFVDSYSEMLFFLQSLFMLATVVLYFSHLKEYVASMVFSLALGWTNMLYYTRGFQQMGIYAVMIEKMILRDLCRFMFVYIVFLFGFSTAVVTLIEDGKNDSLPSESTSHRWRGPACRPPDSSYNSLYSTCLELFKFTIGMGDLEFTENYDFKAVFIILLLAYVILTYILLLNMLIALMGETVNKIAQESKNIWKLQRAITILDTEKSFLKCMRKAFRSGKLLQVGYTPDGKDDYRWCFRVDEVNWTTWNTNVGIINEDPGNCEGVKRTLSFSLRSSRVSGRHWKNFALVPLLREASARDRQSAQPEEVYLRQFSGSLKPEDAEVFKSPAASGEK

The results in this text go back to PubChem BioAssay AID540275 (National Center for Advancing Translational Sciences (NCATS), 2011).

The target in the experiment is Transient receptor potential cation channel subfamily V member 1 (Homo sapiens) (UniProt Q8NER1). In words: HTS Assay for Compounds that Act as Agonists of the Vanilloid Receptor 1. Also: 0% is about no effect. Conditions: TRPV1-expressing cells, Fluo-8 calcium influx, agonist mode; at 8.33 µM; hits give high values. From the text:
The transient receptor potential ion channel, family V, number 1, (TRPV1) is one of the most important molecular transducers of painful stimuli and a potential target for analgesic drug development. Although recent clinical trials with orthosteric antagonists have not produced a successful drug because of a hyperthermia side effect and their tendency to block thermal noxious pain, this ion channel is undeniably well placed in the pain pathway, and the idea of blocking pain signals before they enter the CNS is an excellent concept and of proven efficacy when TRPV1 agonists are used. We propose a new approach involving allosteric modulation to impose an activity-dependent constraint within the context of inflammation and tissue damage that would alter the responsiveness of the channel in a way that an orthosteric vanilloid antagonist cannot achieve. We believe that the allosteric modulator approach has not been explored for this target. The main goal of this proposal is to identify additional, new, potent allosteric modulators of TRPV1 that can be used to investigate TRPV1 function. Our recent report provides evidence of proof of concept, but the compounds are just at the edge of utility in terms of potency. […] The question of whether they can be used as analgesic agents is complex, but if suitable compounds are identified then testing for analgesic properties will be conducted. NIH Chemical Genomics Center [NCGC] NIH Molecular Libraries Probe Centers Network [MLPCN] MLPCN Grant: MH089480-1A1 Assay Submitter (PI): Michael Iadarola, National Institute of Dental and Cranofacial Research
Upon TRPV1 activation in TRPV1 cells, the channel opens and extracellular cations flow through the channel into the cytosol. A calcium binding dye (Fluo-8) becomes fluorescent when bound to calcium. This dye is pre-loaded into cells and is used as a marker for calcium influx. The amount of accumulated calcium is precisely quantified using the FDSS kinetic reader and the calcium dye. For the HTS assay, freshly prepared cells are plated at a density of 2000/well in 3 ul medium in 1536-well plates and cultured overnight at 35.5C. Cells will be loaded with 1 ul of the homogeneous calcium dye (ABD Bioquest) at room temperature for 40 to 90 minutes. Plates will be loaded into the FDSS kinetic reader and a 1 sec / cycle for 10 second baseline signal will be measured. Compound library will then be added with a pintool at 23 nl and measured kinetically for 3 minutes. This portion of the read is considered the agonist portion of the screen. Following the 3 minutes of incubation, an on board pipettor will deliver 1 ul of capsaicin for a final concentration equal to the EC20. Signal will be measured kinetically for an additional 2 minutes. This portion of the read is considered the allosteric enhancer portion of the screen. The FDSS reader has a standard filter set capable of measuring calcium bound Fluo-8 (ex=480 and em=520 nm).
With `CN(C)c1ccc(C(=O)NCC2(N3CCCCC3)CCCCC2)cc1`, the activation is inactive: 0.222%.
Then `O=C(NCC1(N2CCCCC2)CCCCC1)c1ccco1`, with inactive: -4.86%; and `CCN1CCC(Nc2cccc(F)c2)CC1`, with inactive: -4.38%.
Regarding `Fc1ccccc1NC1CCN(Cc2ccccc2)CC1`, the activation was inactive: -1.83%.
As for `Cc1ccc(C(=O)NCC2(N3CCCCC3)CCCCC2)o1`, the activation is inactive: -2.45%.
On to `COc1cc(OC)cc(C(=O)NCC2(N3CCCCC3)CCCCC2)c1`, for which the activation was inactive: -3.86%.
Then `CCCOc1ccc(C)cc1CN(CCCl)CCCl`, with inactive: 3.58%.
For the compound `CN1CCC(Nc2ccc(Cl)cc2)CC1`, the activation was inactive: 2.34%.
For the compound `CCC(CO)(C(=O)OC1CN2CCC1CC2)c1ccccc1` (stereo not given), the activation was inactive: -0.656%.
Then `COc1cc(OC)cc(C(=O)NCC2(N3CCOCC3)CCCCC2)c1`, with inactive: 11.2%; and `COc1cccc(C(=O)N(c2cc(C)cc(C)c2)C2CCN(C(=O)OC(C)(C)C)CC2)c1`, with inactive: -5.69%; and `CCCOc1ccc(C(=O)NCC2(N(C)C)CCCCC2)cc1`, with inactive: 0.647%.
Consider `O=C(O)C1(Nc2ccccc2)CCN(Cc2ccccc2)CC1`, for which the activation is inactive: -1.17%.
`CC(C)(C)OC(=O)N1CCC(Nc2ccccc2)CC1`: the activation was inactive: 13.4%.
In the case of `CN1CCC(Nc2ccc(F)c(Cl)c2)CC1`, the activation was inactive: 7.21%.
For `CCOc1ncccc1C(=O)NCC1(N2CCOCC2)CCCCC1`, the activation was inactive: 12.1%.
The same measure for `O=C(O)c1cccc(Nc2c([N+](=O)[O-])cc([N+](=O)[O-])cc2[N+](=O)[O-])c1`: inactive: 3.12%.
The same measure for `CCc1cc(C(=O)NCC2(N3CCCCC3)CCCCC2)sc1C`: inactive: 6.6%; for `O=C(OC1CN2CCC1CC2)C1c2ccccc2C=Cc2ccccc21` (stereo not given): inactive: -0.0497%.
As for `N/C(=N\O)c1c(N)no[n+]1[O-]`, the activation is inactive: -1.07%.
Consider `COc1ccc(C(=O)NCC2(N3CCOCC3)CCCCC2)cc1OC`, for which the activation is inactive: 3.62%.
On to `O=C(NCC1(N2CCOCC2)CCCCC1)c1cc(Br)ccc1Cl`, for which the activation was inactive: 24.6%.
Then `CCCN1CCC(Nc2cc(OC)cc(OC)c2)CC1`, with inactive: 4.19%; and `c1ccc(CN2CCC(Nc3ccccc3)CC2)cc1`, with inactive: 4.09%; and `CN(C)C1(CNC(=O)c2cccc(C#N)c2)CCCCC1`, with inactive: -1.98%.
For `CCOC(=O)C(CC)C1=NC(C)(C)Cc2ccccc21.O=[N+]([O-])c1cc([N+](=O)[O-])c(O)c([N+](=O)[O-])c1` (stereo not given), the activation is inactive: 1.16%.
The same measure for `CC(C)(C)OC(=O)N1CCC(N(C(=O)c2ccccc2)c2ccc(Cl)cc2)CC1`: inactive: 18.5%; for `N#Cc1ccc(C(=O)NCC2(N3CCCCC3)CCCCC2)cc1`: inactive: -1.05%; for `CN1CCN(CCOC(=O)C(O)(c2ccccc2)c2ccccc2)CC1`: inactive: -2.55%.
Turning to `CC(C)c1ccc(C(=O)NCC2(N3CCOCC3)CCCCC2)cc1`, the activation is inactive: -5.33%.
As to `COc1ccc(NC2CCN(C(=O)OC(C)(C)C)CC2)cc1`, the activation is inactive: 4.29%.
As to `COc1cc(C(=O)NCC2(N3CCCCC3)CCCCC2)ccc1OC(F)F`, the activation is inactive: -1.37%.
Regarding `O=C(NCC1(N2CCOCC2)CCCCC1)c1cc(=O)[nH]c2ccccc12`, the activation is inactive: 5.42%.
For `O=C(NCC1(N2CCCCC2)CCCCC1)c1cccc(C(F)(F)F)c1`, the activation was inactive: 2.01%.
`O=[N+]([O-])c1cc([N+](=O)[O-])c(NCC2CCS(=O)(=O)C2)c([N+](=O)[O-])c1` (stereo not given): the activation was inactive: 1.43%.
`O=C(NCC1(N2CCCCC2)CCCCC1)c1cccc([N+](=O)[O-])c1`: the activation was inactive: -0.284%.
Then `CSc1ccc(C(=O)NCC2(N3CCOCC3)CCCCC2)cc1`, with inactive: 6.95%; and `N#CC1(Nc2ccccc2)CCN(CCc2ccccc2)CC1`, with inactive: -4.45%; and `CCN1CCC(Nc2ccc(Cl)cc2)CC1`, with inactive: 3.17%.
As to `O=C(NCC1(N2CCCCC2)CCCCC1)c1ccc(OC(F)F)cc1`, the activation is inactive: 3.68%.
Then `CCCOc1ccc(C(=O)NCC2(N(C)C)CCCCC2)cc1OC`, with inactive: -4.85%; and `COc1ccc2c(c1O)-c1c(O)c(OC)cc3c1[C@H](C2)[N+](C)(C)CC3.O=[N+]([O-])c1cc([N+](=O)[O-])c([O-])c([N+](=O)[O-])c1[O-]`, with inactive: -1.5%.
Turning to `O=C(NCC1(N2CCCCC2)CCCCC1)c1cncc(Br)c1`, the activation was inactive: 1.03%.
`O=C(OC1CN2CCC1CC2)c1ccc([N+](=O)[O-])cc1` (stereo not given): the activation was inactive: 2.34%.
Turning to `COc1cc(OC)c(C(=O)NCC2(N(C)C)CCCCC2)cc1OC`, the activation was inactive: -3.29%.
Take `O=[N+]([O-])c1cc([N+](=O)[O-])c(OC2CCCCC2O)c([N+](=O)[O-])c1` (stereo not given): the activation was inactive: -0.53%.
Turning to `CN(C)c1cccc(C(=O)NCC2(N3CCCCC3)CCCCC2)c1`, the activation is inactive: 2.01%.
Consider `COc1ccc(CN(CCCl)CCCl)cc1Cl`, for which the activation is inactive: -3.56%.
As for `CC(C)c1ccc(NC2CCN(C(=O)OC(C)(C)C)CC2)cc1`, the activation is inactive: 19.9%.
For `CCOC(=O)N1CCC(Nc2ccc(OC)cc2)CC1`, the activation is inactive: 0.4%.
`O=C(NCC1(N2CCCCC2)CCCCC1)c1ccc(Cl)s1`: the activation was inactive: 7.46%.
In the case of `N#CC1(Nc2ccccc2)CCN(Cc2ccccc2)CC1`, the activation was inactive: -1.32%.
For the compound `O=C(OC1CN2CCC1CC2)C1c2ccccc2Oc2ccccc21` (stereo not given), the activation was inactive: 1.01%.
Regarding `O=C(NCC1(N2CCOCC2)CCCCC1)c1cc2ccccc2o1`, the activation is inactive: 7.75%.
Turning to `Cc1cc(C)cc(N(C(=O)c2ccccc2)C2CCN(C(=O)OC(C)(C)C)CC2)c1`, the activation is inactive: 10.9%.
`O=C(NCC1(N2CCCCC2)CCCCC1)c1ccc(Cl)nc1`: the activation is inactive: 0.199%.
Turning to `CSc1ccccc1C(=O)NCC1(N2CCCCC2)CCCCC1`, the activation was inactive: 0.351%.
Then `O=C(NCC1(N2CCCCC2)CCCCC1)c1cccs1`, with inactive: -1.79%; and `O=C(NCC1(N2CCCCC2)CCCCC1)c1ccc(=O)[nH]c1`, with inactive: 0.0286%; and `CC(C)(C)OC(=O)N1CCC(N(C(=O)c2ccccc2)c2ccc(F)cc2)CC1`, with inactive: -0.0266%.
The same measure for `COc1ccc(C(=O)NCC2(N3CCCCC3)CCCCC2)c(OC)c1OC`: inactive: 3.41%.
Then `COc1ccc(C(=O)NCC2(N3CCCCC3)CCCCC2)cc1`, with inactive: -0.926%; and `Cc1ccc(OCC(C)C)c(CN(CCCl)CCCl)c1`, with inactive: 16.2%.
Turning to `CCOC(=O)N1CCC(Nc2cccc(C)c2)CC1`, the activation is inactive: 19.2%.
Turning to `COc1cc(C(=O)NCC2(N(C)C)CCCCC2)ccc1OC(F)F`, the activation is inactive: 1.12%.
As to `COc1ccc(NC2CCN(CCc3ccccc3)CC2)c(OC)c1`, the activation is inactive: -1.39%.
Then `CCOC(=O)N1CCC(Nc2ccc(F)cc2)CC1`, with inactive: 6.87%; and `CCCCOc1ccc(C(=O)NCC2(N3CCOCC3)CCCCC2)cc1`, with inactive: 12.9%.
The same measure for `O=C(NCC1(N2CCCCC2)CCCCC1)c1ccc(F)cc1`: inactive: 2.8%; for `CCOc1ccc(C)cc1CN(CCCl)CCCl`: inactive: 0.619%.
